Molecular target: T1, Alpha-1A adrenergic receptor (Rattus norvegicus, UniProt P43140)
T1 sequence (P43140 whole entry): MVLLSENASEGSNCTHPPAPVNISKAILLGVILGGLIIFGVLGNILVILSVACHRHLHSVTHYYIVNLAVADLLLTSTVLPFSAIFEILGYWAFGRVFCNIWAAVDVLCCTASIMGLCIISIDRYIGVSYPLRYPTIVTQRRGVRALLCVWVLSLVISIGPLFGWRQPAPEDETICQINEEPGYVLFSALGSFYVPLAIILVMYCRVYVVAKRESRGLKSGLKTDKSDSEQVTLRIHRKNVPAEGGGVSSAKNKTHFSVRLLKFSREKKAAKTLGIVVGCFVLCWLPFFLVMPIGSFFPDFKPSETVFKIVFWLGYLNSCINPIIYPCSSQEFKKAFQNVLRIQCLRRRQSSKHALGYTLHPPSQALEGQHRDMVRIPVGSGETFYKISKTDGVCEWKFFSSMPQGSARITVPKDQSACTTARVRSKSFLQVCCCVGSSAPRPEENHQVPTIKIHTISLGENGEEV

Which Ki does the source give for `COC(=O)[C@@H]1[C@H]2C[C@H]3c4[nH]c5ccccc5c4CCN3C[C@@H]2CC[C@@H]1O` [yohimbic acid methyl ester] here?
Its Ki is 1100 nM.

Reference: BindingDB's records for doi:10.1016/0014-2999(86)90335-3 (Janssen Pharmaceutica, 1986)
